Experimental data: publication PMC7385413 (Frontiers in Neuroscience, 2020)

Amino acid sequences for entries named in this document (tags omitted). A change or cut given only in a name is not applied to a line headed by its entry.
UniProt P41145: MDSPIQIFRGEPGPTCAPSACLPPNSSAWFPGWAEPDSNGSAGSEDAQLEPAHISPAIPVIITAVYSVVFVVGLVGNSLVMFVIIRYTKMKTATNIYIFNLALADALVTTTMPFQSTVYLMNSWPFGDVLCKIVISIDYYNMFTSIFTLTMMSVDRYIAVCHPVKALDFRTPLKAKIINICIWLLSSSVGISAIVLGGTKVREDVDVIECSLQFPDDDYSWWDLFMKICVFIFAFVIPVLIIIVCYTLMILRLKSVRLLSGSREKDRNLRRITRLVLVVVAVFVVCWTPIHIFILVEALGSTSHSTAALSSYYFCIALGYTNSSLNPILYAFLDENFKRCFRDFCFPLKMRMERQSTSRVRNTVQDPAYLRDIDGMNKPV

Biological target: hKOPr (Homo sapiens, UniProt P41145)
Assay: β-arrestin2 recruitment (PathHunter) in U2OS cells expressing β-arrestin2 and hKOPr
Format: cell-based
Set-up: host or cells: U2OS
Conditions: normalized to the vehicle and U50,488 maximum response

C#Cc1occc1[C@@H]1C[C@]2(C)[C@H]3C(=O)[C@@H](OC(C)=O)C[C@@H](C(=O)OC)[C@]3(C)CC[C@H]2C(=O)O1 [16-Ethynyl SalA, 16-Ethynyl Salvinorin A]
β-arrestin2 recruitment Emax ± SEM: 89.0 ± 2.2
